This is an account of results in patent US10253019B2, “Tank-binding kinase inhibitor compounds” (Gilead Sciences, Inc., priority 2014, dated 2019).

Protein sequences, listed by entry. Tags and fused reporters are not part of them. Lines headed by an entry give the natural chain unless they say otherwise; changes in a name come on top.
UniProt Q9UHD2: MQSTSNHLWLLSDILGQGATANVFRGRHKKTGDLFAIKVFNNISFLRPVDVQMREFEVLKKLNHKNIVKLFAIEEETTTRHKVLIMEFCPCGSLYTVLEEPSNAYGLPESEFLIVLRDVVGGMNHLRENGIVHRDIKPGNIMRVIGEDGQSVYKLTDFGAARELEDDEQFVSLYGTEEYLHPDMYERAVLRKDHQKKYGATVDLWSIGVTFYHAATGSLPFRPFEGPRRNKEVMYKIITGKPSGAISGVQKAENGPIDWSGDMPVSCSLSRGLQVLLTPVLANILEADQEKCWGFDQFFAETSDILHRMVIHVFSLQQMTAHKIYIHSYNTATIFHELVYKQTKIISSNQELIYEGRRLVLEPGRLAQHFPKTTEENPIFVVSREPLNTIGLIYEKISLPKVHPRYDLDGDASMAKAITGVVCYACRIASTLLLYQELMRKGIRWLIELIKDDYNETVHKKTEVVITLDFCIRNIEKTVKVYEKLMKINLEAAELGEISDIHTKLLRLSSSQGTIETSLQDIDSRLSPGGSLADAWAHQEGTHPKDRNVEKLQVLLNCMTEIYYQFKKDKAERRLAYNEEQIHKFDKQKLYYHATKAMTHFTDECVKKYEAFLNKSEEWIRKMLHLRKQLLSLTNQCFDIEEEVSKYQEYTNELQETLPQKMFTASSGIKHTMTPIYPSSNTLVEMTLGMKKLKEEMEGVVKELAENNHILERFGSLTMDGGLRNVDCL

This test addresses TBK1 (Homo sapiens (Human), UniProt Q9UHD2). The experiment in a line: TBK1 TR-FRET enzymatic assay. The conditions noted are these: read-out: TBK1 IC50. Background: TR-FRET usually uses a lanthanide donor and a delayed reading to cut background.

One may read the IC50 as the concentration needed to halve the response being measured.

Consider “2-(((3R,4S)-4-fluoro-1-(2-hydroxyacetyl)pyrrolidin-3-yl)oxy)-5-(4-((4-(4-(oxetan-3-yl)piperazin-1-yl)phenyl)amino)-1,3,5-triazin-2-yl)benzonitrile [Example 101]”, for which the IC50 stood at 14 nM.
